Test: solubility in water
Type: physicochemical

**Q.** Which solubility in water does the source give for `O=C(O)c1cc(Cl)ccc1O` [5-chloro SA] here?
**A.** low solubility in water
